In assay [1] the target is T1, recombinant soluble human TREM2 protein (human TREM2 ECD-FlagHis) (human, UniProt Q9NZC2 19-174).
T1 sequence: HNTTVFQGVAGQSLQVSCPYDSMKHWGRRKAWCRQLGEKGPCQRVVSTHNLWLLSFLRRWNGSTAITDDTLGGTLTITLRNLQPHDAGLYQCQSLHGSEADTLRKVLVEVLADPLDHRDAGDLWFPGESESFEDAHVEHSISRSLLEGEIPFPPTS
Put plainly: Octet BLI binning; competitor: load Ab 33B12. As to the method:
(§1) Each of sixteen different anti-TREM2 antibodies produced from hybridomas were quantitated and loaded onto one of the anti-human Fc sensors at 5 μg/mL for 2 minutes (“Load Antibody”). The sensor was then blocked with 100 μg/mL of an irrelevant human IgG2 antibody for 5 minutes. […] Next, each of the sixteen different anti-TREM2 antibodies (“Sandwich Antibody”) was added to the sensor at 5 μg/mL and allowed to bind for 5 minutes. All assay buffers contained 10 mM Tris (pH 7.6), 0.1% Triton X-100, 150 mM NaCl, 1 mM CaCl₂, and 1 mg/mL BSA. The assay was conducted at 25° C. Experimental kinetic results were fit to a 1:1 binding model.
(§2) However, if addition of the sandwich antibody produces a binding event, then the sandwich antibody binds to a different epitope on human TREM2 than the load antibody and the two antibodies are categorized into different epitope bins.
(Biolayer interferometry detects binding as a change in optical thickness at a sensor tip.)

Assay [2] concerns the target T2, human TREM2 on cells (human, UniProt Q9NZC2 19-230).
T2 sequence: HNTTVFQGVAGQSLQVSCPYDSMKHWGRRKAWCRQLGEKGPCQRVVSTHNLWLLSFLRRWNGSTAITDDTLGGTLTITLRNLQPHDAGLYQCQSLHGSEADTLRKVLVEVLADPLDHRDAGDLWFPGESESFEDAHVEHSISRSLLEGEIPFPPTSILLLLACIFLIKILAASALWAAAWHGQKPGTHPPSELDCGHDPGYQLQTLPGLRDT
Nature of the assay: cell-based or functional assay.

Assay [3] addresses T3, mouse TREM2 on cells (mouse, UniProt Q99NH8 19-227).
T3 construct: whole, on cells
T3 sequence (looked up): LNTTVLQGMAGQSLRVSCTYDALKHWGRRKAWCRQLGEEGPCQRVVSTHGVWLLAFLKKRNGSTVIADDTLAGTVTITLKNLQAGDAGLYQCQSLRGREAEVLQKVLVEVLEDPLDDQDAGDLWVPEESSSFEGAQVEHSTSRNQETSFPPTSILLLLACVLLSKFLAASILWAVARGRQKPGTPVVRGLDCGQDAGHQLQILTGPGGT
Nature of the assay: FACS, transfected HEK293 cells.

Assay [4] concerns the target T4, cynomolgus TREM2 on transfected HEK293 cells (cynomolgus, UniProt A0A2K5UY34 49-260).
T4 construct: also called Cyno TREM2
T4 sequence: T2 sequence with A10E, W60R, L89F, F125V, I157V, L193P, Y201H
Nature of the assay: FACS, transfected HEK293 cells. (Flow cytometry measures light scatter and fluorescence of single cells or particles in a stream.)

The target in assay [5] is T5, human TREM1 on a cell line stably expressing human TREM1/DAP12 (human, UniProt Q9NP99 21-234).
T5 construct: signal peptide 1-20 left out
Nature of the assay: FACS, human TREM1/DAP12 cell line.

Assay [6] deals with T1, recombinant soluble human TREM2 protein …. Put plainly: Octet BLI binning; competitor: load Ab 26A10. As to the method:
as §1, §2

In assay [7] the target is T5, human TREM1 on a cell line stably …. Nature of the assay: FACS on cell line stably expressing human TREM1/DAP12.

Changes are numbered by the printed parent chain.

B1: 33B12 (antibody, V domains shown)
VH: EVQLVESGGALVQPGGSLRLSCAASGFTFSSFGMSWVRQAPGKGLEWVSYISKSSFTIYYADSVKGRFTISRDNAKNSFYLQMNSLRDEDTAVYYCAREGGLTMVRGVSSYGLDVWGQGTTVTVSS
VL: not shown
notes: human IgG2 from hybridoma
As for B1, the sandwich binding signal in assay [1] was -0.014. The “pSyk fold over control” value in assay [2] stood at 6 fold. Besides, the “GM fold over irrelevant control antibody” value in assay [3] turned out to be 1 fold; in assay [4] it was 21.7 fold.

B2: 26C10 (antibody, human IgG2, V domains shown)
VH: B1 VH with K53S, Y95F, A97V, L102I, L113M
VL: SFELTQPPSVSVSPGQTASITCSGDKLGDKYVCWYQQKPGQSPMLVIYQDTKRPSGIPERFSGSNSGNTATLTISGTQAMDEADYYCQAWDSSTVVFGGGTKLTVL
notes: human IgG2 from hybridoma
On to B2, for which the results for the “GM fold over irrelevant control antibody” value in assay [5], in assay [3] and in assay [4] were 1.7 fold, 0.9 fold and 46 fold, respectively. Besides, the sandwich binding signal in assay [6] was -0.017. In addition, in assay [7], the binding result was “no binding”. The “pSyk fold over control” value in assay [2] stood at 4.8 fold.

These data come from patent US20220204611A1 (Amgen, published 2022).
